Test results from article PMC9062740 (2022).

Target: filamentous actin (F-actin) polymerized from rabbit muscle G-actin (rabbit, UniProt P68135 1-377)

B1: CLIP-170 S2-CG2-S3 fragment (156-350) (domain or fragment)
chain: MVSSSPSTPSNIPQKPSQPAAKEPSATPPISNLTKTASESISNLSEAGSIKKGERELKIGDRVLVGGTKAGVVRFLGETDFAKGEWCGVELDEPLGKNDGAVAGTRYFQCQPKYGLFAPVHKVTKIGFPSTTPAKAKANAVRRVMATTSASLKRSPSASSLSSMSSVASSVSSRPSRTGLLTETSSRYARKISGT
Kd: 7.3 µM
